The target of the test is T1, Human HHLA2-mIgG2a fusion protein (human; mouse, UniProt Q9UM44 23-344, limits assumed).
T1 construct: also called HHLA2-Ig; HHLA2-mouse IgG2a; not shown: mutated at IgG2a L235E, E318A, K320A, K322A
T1 sequence: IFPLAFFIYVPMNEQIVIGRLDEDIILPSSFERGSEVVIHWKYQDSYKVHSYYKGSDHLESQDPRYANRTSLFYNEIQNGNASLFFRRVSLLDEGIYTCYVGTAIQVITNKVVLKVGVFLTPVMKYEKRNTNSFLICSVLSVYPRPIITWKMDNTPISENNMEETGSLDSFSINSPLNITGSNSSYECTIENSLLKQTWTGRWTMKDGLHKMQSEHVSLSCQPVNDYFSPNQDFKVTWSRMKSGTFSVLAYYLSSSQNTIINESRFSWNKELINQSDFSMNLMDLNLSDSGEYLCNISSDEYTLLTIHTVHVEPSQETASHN
The experiment in a line: cell microarray on transfected HEK293 cells, HHLA2-mIgG2a probe, AF647 anti-mouse IgG detection. As to the method: A library of ˜5500 full length cDNA clones covering more than 3,500 different plasma membrane proteins was arrayed in duplicate across 13 microarray slides (“slide sets”). Human HEK293 cells were grown above the cDNA clones and reverse-transfected. An expression vector (pIRES-hEGFR-IRES-ZsGreen1) was spotted in quadruplicate on every slide and was used to ensure that a minimal threshold of transfection efficiency had been achieved or exceeded on every slide.
Two replicate slides were screened for each of the 13 slide sets. Fluorescent images were analyzed and quantitated (for transfection efficiency) using ImageQuant software (GE). A protein ‘hit’ was defined as duplicate spots showing a raised signal compared to background levels. This was achieved by visual inspection using the images gridded on the ImageQuant software.

B1: PD-1 (receptor, UniProt Q15116 25-288, looked up)
chain: LDSPDRPWNPPTFSPALLVVTEGDNATFTCSFSNTSESFVLNWYRMSPSNQTDKLAAFPEDRSQPGQDCRFRVTQLPNGRDFHMSVVRARRNDSGTYLCGAISLAPKAQIKESLRAELRVTERRAEVPTAHPSPSPRPAGQFQTLVVGVVGGLLGSLVLLVWVLAVICSRAARGTIGARRTGQPLKEDPSAVPVFSVDYGELDFQWREKTPEPPVPCVPEQTEYATIVFPSGMGTSSPARRGSADGPRSAQPLRPEDGHCSWPL
notes: whole, on cells
On to B1, for which the binding result is recorded as “no binding (tested: 20 ug/ml)”.

Source of the values: US20250388702A1 (Dana-Farber, published 2025).
